Source: patent publication US12552755B2, “Cinnamic amide derivative having FXR activating effect, pharmaceutical composition containing the same as active ingredient, and method for preparing the same” (KYUNGSUNG UNIVERSITY INDUSTRY COOPERATION FOUNDATION, priority 2019, dated 2026)

Molecular target: T1, farnesol X receptor (FXR) (Homo sapiens, UniProt Q96RI1)
T1 construct: endogenous in cells; host or cells: HepG2
T1 sequence (Q96RI1 1-486): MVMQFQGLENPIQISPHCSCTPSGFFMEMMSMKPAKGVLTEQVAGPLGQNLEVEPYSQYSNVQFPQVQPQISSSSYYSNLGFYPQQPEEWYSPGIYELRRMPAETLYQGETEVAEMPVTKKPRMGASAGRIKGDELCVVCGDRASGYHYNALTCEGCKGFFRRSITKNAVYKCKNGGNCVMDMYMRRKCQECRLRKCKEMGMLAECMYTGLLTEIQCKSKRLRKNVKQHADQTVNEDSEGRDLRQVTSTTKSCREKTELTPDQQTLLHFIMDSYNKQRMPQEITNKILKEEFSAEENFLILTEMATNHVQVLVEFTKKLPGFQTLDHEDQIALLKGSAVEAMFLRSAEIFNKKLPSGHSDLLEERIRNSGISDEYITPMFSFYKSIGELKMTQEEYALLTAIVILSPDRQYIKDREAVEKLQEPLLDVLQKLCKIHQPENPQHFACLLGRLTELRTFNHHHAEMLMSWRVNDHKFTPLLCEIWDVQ
Experiment: Farnesol X receptor (FXR) reporter gene assay (dual luciferase) in HepG2 cells
Assay type: cell-based
Settings: drug treatment 24 hours, firefly/renilla luciferase ratio, Con = 1.00
Method: HepG2 cells were purchased from ATCC (Manassas, VA, USA) and cultured in Dulbecco's modified Eagle's medium (DMEM; Hyclone) containing 10% fetal bovine serum (FBS, Hyclone, Logan, UT, USA), 50 units/mL penicillin (Hyclone) and 50 μg/mL streptomycin (Hyclone). All cells were cultured to have a confluency of about 80% to 90% under the conditions of 37° C. and 5% Co2.
In order to measure FXR transcription factor activity, HepG2 cells (1×10^5 cells/well) were cultured in a 48-well cell culture plate (SPL Life Science Co., Gyeonggido, Korea) for 20 hours and then transduced using Lipofectamin L3000 (Invitrogen, San Diego, CA, USA). Luciferase is an enzyme that catalyzes light-emitting reactions. […] After the reaction was completed, the drug-treated culture medium was discarded, and lysis buffer was added at 0.4 ml/well to remove the cells, then the cells were dispensed into a 96-well white plate (SPL Life Science Co.), and the luminescence level was measured using the Dual-glo Luciferase Assay System (Promega, Madison, WI, USA). For the firefly luciferase activity (to see the level of FXR expression) and renilla luciferase activity (to provide a reference value by showing constant expression), the luminescence level was measured using the GloMax Multi Detection System (Promega) and then the relative ratio (firefly luciferase activity/renilla luciferase activity) was calculated.

SMILES: CC(C)c1onc(-c2c(Cl)cccc2Cl)c1COc1ccc(/C=C/c2cccc(C(=O)O)c2)c(Cl)c1 [GW4064, reference compound]
- FXR fold induction (dose 5 uM): 2.92
- FXR fold induction (dose 10 uM): 3.96
